Results: paper PMC5973797 (Cell chemical biology, 2018)
pIC50: −log10 of the molar value.

By UniProt entry, the sequences of proteins in these tests, tags left out. Where a name states a change or a piece, a line headed by the entry shows the natural chain unless it says otherwise.
UniProt P49759: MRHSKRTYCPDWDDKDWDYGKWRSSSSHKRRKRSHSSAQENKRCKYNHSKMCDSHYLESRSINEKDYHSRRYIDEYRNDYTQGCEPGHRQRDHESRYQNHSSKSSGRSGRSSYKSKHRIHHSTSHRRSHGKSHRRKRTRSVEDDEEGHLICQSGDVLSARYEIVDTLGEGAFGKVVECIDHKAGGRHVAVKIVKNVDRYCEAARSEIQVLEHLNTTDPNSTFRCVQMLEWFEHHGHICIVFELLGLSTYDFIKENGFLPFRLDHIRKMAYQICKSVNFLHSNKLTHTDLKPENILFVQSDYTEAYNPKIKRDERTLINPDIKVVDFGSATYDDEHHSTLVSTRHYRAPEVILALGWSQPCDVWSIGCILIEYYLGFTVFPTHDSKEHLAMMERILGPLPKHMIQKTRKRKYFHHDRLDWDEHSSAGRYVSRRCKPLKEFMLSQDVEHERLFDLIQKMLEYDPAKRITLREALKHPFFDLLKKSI

What was measured:
[1] = test system: SR protein phosphorylation in HeLa cells; assay: SR protein phosphorylation western blot with mAb104; type: cell-based; details: for SR protein phosphorylation: 16 hr
[2] = test system: kinome of HeLa cells; details: 5 μM
[3] = target: CLK1 (Homo sapiens, UniProt P49759); assay: biochemical

Question: With O=C(Nc1cc(C(F)(F)F)ccc1N1CCCCC1)c1ccncc1 [SRPIN340, N-(2-(piperidin-1-yl)-5-(trifluoromethyl)phenyl)isonicotinamide, reference compound] as the molecule, how does the SR protein phosphorylation ([1]; 10 μM) read?
Answer: Its SR protein phosphorylation is “minimal effect”.

Question: For CCc1cc2c(cc1-c1cccc(S(=O)(=O)F)c1)C(C)(C)c1[nH]c3cc(C#N)ccc3c1C2=O [SRPKIN-1, 3-(3-cyano-9-ethyl-6,6-dimethyl-11-oxo-6,11-dihydro-5H-benzo[b]carbazol-8-yl)benzenesulfonyl fluoride], which “kinome-wide selectivity, KiNativ before washout” value ([2]; 6 hr) is on record?
Answer: The value was “striking selectivity for SRPK1”.

Question: What about the “kinome-wide selectivity, KiNativ after washout” value ([2]; after washout) of the same molecule?
Answer: Its value is “more striking”.

Question: And the SR protein phosphorylation ([1]; 200 nM, without washout)?
Answer: The SR protein phosphorylation was “significantly reduced”.

Question: And the “SR protein phosphorylation after washout” value ([1]; 200 nM, after washout)?
Answer: Its value is “continued to show the inhibitory effect”.

Question: And the pIC50 [3]?
Answer: The pIC50 was < 5.00.
